This experiment concerns the target Translocator protein (Homo sapiens, UniProt P30536). Kind of experiment: Binding affinity to human TSPO.

Amino acid sequences for entries named in this document (tags omitted).
UniProt P30536, whole entry: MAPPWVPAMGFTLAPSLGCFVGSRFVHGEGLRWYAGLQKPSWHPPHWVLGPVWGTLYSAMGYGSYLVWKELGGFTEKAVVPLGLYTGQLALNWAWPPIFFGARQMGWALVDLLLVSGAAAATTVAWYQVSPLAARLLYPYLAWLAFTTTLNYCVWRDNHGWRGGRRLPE

Compound `CC[C@@H](C)N([11CH3])C(=O)c1cc2ccccc2c(-c2ccccc2Cl)n1` showed a Kd of 2 nM.

These data come from ChEMBL document CHEMBL5226324, “Exploring Translocator Protein (TSPO) Medicinal Chemistry: An Approach for Targeting Radionuclides and Boron Atoms to Mitochondria” (J Med Chem, 2021).
